Here are results for 1 molecule from patent publication US11976099B2, “Compositions and methods for treatment of bone associated diseases” (THE NATIONAL INSTITUTE FOR BIOTECHNOLOGY IN THE NEGEV LTD., priority 2016, dated 2024).

Protein sequences, listed by entry. Tags and fused reporters are not part of them. Residues count along the entry.
UniProt P07333, 20-512: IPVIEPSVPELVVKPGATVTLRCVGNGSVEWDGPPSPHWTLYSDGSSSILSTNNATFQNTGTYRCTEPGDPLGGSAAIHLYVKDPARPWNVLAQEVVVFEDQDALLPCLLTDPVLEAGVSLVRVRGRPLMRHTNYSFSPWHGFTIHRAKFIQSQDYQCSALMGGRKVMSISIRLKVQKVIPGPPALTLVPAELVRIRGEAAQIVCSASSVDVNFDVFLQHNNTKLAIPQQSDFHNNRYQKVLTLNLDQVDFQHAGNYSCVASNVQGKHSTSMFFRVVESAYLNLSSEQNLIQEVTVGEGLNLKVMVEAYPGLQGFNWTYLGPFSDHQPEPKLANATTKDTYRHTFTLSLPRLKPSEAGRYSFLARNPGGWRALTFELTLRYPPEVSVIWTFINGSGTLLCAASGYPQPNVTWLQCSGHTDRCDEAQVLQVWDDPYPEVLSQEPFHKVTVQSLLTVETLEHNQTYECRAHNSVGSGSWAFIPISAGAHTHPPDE

For this assay, the target named is human c-FMS (Homo sapiens, UniProt P07333). The assay is described as follows: SPR of immobilized purified proteins against soluble c-FMS (ProteOn XPR36). The arrangement: Soluble human c-FMS receptor (extracellular domains, residues Met1-Glu512) (Sino Biological, China); purchased Sino Biological. Conditions: c-FMS 0-200 nM, equilibrium. The assay is classed as binding. The method, then: Determination of binding of the soluble purified proteins (M-CSFM and M-CSFRGD variants) to c-FMS and αvβ3 integrin was performed on a ProteOn XPR36 (Bio-Rad, USA). The M-CSFRGD, M-CSFM and M-CSFαvβ3 protein variants were immobilized on the surface of the chip by using the amine coupling reagents sulfo-NHS (0.1 M N-hydroxysuccinimide) and EDC (0.4 M 1-ethyl-3-(3 dimethylaminopropyl)-carbodiimide), Bio-Rad, USA). To attach the M-CSFRGD, M-CSFM and M-CSFαvβ3 variants covalently to the chip, 1 μg of each protein and 3 μg of BSA in 10 mM sodium acetate buffer, pH 4.0, were used to give 474, 900 1329, 1272 and 1337 response units (RU) for M-CSFM, M-CSFαvβ3 4.22, 4.24 and 5.6 respectively. Unbound esters were deactivated with 1 M ethanolamine HCl at pH 8.5, and the temperature was set at 25° C. Then, the chip was rotated, and the human c-FMS soluble proteins (Sino Biological, China) were allowed to flow over the chip at 6 different concentrations (0, 12.5, 25, 50, 100 and 200 nM) at a flow rate of 50 μl/min for 490 s, followed by dissociation for 600 s in PBS+0.005% Tween (PBST). For determining αvβ3 integrin binding, the chip was regenerated using 50 mM NaOH at a flow rate of 100 μl/min and analyzed again for c-FMS binding to make sure that the chip had been regenerated. […]

B1: M-CSFαvβ3: variant 4.22 with histidine to alanine mutations at positions 9 and 15; binds αvβ3 integrin but not c-FMS (protein)
chain: EEVSEYCSAMIGSGALQSLQRLIDQTSRGDSPSITFEFVDQEQLKDPVCYLKKAFLLVQDIMEDTMRFRDNTPNAIAIVQLQELSLRLKSCFTKDYEEHDKACVRTFYETPLQLLEKVKNVFNETKNLLDKDWNIFSKNCNNSFAECSSQGHERQSEGS
modifications: left off: small tags and cut ends
Turning to B1, the “KD to c-FMS” value was “didn't show any binding”.
